{
  "sequences": {"note": "Sequences of proteins named here, by UniProt entry; tags and fusion partners are left off. A change or cut given only in a name is not applied to a line headed by its entry. Residues count along the entry.", "UniProt P01903, 26-216 limits assumed": "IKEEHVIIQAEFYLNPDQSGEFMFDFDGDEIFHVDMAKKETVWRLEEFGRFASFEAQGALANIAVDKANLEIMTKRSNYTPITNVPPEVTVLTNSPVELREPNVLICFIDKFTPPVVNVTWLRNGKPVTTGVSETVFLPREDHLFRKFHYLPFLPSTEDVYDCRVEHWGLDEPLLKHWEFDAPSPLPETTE"},
  "source": "patent US20220177542A1",
  "about": "(priority 2020, published 2022)",
  "key": {"HLA-DRB1*15:01 monomer": {"target": "T1, HLA-DRB1*15:01 monomer (Homo sapiens, UniProt P01903+P01911)", "T1 construct": "the extracellular domain of the MHC class II α chain and β chain to which leucine zipper motifs are added; leucine zipper motif", "type": "binding"}, "HLA-DRB1*03:01 monomer": {"target": "T2, HLA-DRB1*03:01 monomer (Homo sapiens, UniProt P01903+P01911, A100K/A102G/A103R/A169T/F55Y/I96L/K41T/L162R/M171V/P40S/Q125H/Q178H/Q39Y/R42S/S66N/T106N/T262R/W38E/Y61H)", "T2 construct": "the extracellular domain of the MHC class II α chain and β chain to which leucine zipper motifs are added; leucine zipper motif", "type": "binding"}},
  "data": [
    {"sequence": "PKYVKQNTLKLAT", "values": [
      {"measurement": "% pept exch", "setting": "HLA-DRB1*15:01 monomer", "result": 85.12, "unit": "%"},
      {"measurement": "% pept exch", "setting": "HLA-DRB1*03:01 monomer", "result": 41.71, "unit": "%"}
    ]}
  ]
}
